From patent US12286452B2, “Amphiphilic aminoglycoside connexin hemichannel inhibitors” (Texas Tech University System, priority 2018, dated 2025)
Where two headings read alike, the source gives them in different places.

Biological target: T1, human Cx26 HCs (Homo sapiens, UniProt P29033)
T1 construct: expressed in transfected cells; host or cells: E. coli LB2003 (carrying pREP4), transformed with pQE-Cx26, IPTG-induced
Assay: Cx26-dependent growth complementation assay in E. coli LB2003
Assay type: cell-based
Procedure: These derivatives were prepared by sequential benzylation and methylation followed by reduction of azido groups or hydrogenolysis of the Bn. […] Connexin HC inhibition was conducted using a bacteria-based assay of HC function^39. In this assay, Cx26 HCs are expressed in E. coli LB2003 cells, which lack three major K^+ uptake systems (Kdp, Kup and Trk), and as a result they cannot grow in low-[K^+] media^39-41. However, growth of this E. coli strain in low-[K^+] medium can be rescued by expression of K^+-permeable channels such as connexin HCs^39, 42-43. Under the conditions of the assay (LB2003 cells expressing HCs and grown in low-K^+ medium), inhibition of the HCs reduces or abolishes growth^39, 42-43. This is a simple assay where bacterial growth in multi-well plates can be followed by measuring the absorbance at 600 nm (OD600)^29.
LB2003 cells generously provided by Dr. E. P. Bakker (Osnabruk University, Osnabruk, Germany) were transformed with the plasmid pQE-Cx26 (human Cx26 into pQE60) and pREP4. […] LB2003 cells cannot grow in low-[K^+] media because of insufficient K^+ uptake for growth due to the knockout of three key K^+ transporters (Atrk, Akup, Akdp strain)^2-4. Details and validation of the growth complementation assay have been published recently^2. In brief, competent LB2003 containing the pREP4 plasmid were transformed with pQE-Cx26. These cells were grown overnight in Luria-Bertani medium (BD, Franklin Lakes, NJ, USA) supplemented with 100 mM KCl (to allow growth) and 0.4 mg/mL ampicillin, and then washed four times with NLM (see below), to remove residual K^+ from the Luria-Bertani medium. The washed cells were resuspended in complementation growth medium to an OD600 of 0.2. NLM contained 46 mM Na2HPO4, 23 mM NaH2PO4, 8 mM (NH4)2SO4, 0.4 mM MgSO4, 0.012 mM FeSO4, 1 mM sodium citrate, 44 mM glucose and 0.006 mM thiamine hydrochloride, pH 7.0. […] OD600 was measured after 18-h incubation in a plate reader. […] Statistically significant differences were calculated by the Student t-test for unpaired data. […]

Measured: IC50

NC[C@H]1O[C@H](O[C@H]2[C@H](O)[C@@H](O[C@@H]3O[C@H](COCc4ccccc4)[C@@H](OCc4ccccc4)[C@H](N)[C@H]3O)[C@H](N)C[C@@H]2N)[C@H](O)[C@@H](O)[C@@H]1O [Compound 7, 4″,6″-Di-O-benzylkanamycin]
7.6 ± 1.2 µM: 4″,6″-disubstituted AKs, Table 5, read-out: Cx26 IC50 | K46 members, the 20th table, read-out: IC50 (μM) against Cx26 | read-out: IC50, inhibition of Cx26 by kanamycin A and synthetic AGs, first Table 1
